Molecular target: T1, CYP1B1 (Homo sapiens, UniProt Q16678)
T1 sequence (Q16678 1-543): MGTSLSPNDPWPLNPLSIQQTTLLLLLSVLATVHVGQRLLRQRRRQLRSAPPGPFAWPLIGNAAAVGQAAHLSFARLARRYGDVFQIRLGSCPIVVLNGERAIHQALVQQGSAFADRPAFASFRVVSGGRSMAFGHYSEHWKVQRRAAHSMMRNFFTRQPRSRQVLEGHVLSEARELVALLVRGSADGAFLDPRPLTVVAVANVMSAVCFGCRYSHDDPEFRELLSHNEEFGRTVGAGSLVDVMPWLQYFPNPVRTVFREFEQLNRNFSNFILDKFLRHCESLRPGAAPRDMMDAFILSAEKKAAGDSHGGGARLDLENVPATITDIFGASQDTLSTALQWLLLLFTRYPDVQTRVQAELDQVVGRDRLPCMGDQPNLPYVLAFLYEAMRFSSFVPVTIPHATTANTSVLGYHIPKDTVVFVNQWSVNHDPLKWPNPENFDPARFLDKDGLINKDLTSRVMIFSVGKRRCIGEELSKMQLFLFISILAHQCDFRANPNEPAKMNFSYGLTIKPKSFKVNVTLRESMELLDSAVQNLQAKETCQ
Test: CYP1B1 inhibition in live human cells (HEK293)
Assay type: cell-based

Work on O=c1cc(-c2ccccc2)oc2c1ccc1ccccc12 [Alpha-naphthoflavone, reference compound] yielded an IC50 greater than 10000 nM.

Source: patent US20210284618A1, “FURANOCHALCONES AS INHIBITORS OF CYP1A1, CYP1A2 AND CYP1B1 FOR CANCER CHEMOPREVENTION” (Council of Scientific & Industrial Research, priority 2016, published 2021)
